Results: PubChem BioAssay (NCATS)
Only a part is listed here, and it is no random draw. Results filed as inconclusive are left out. For some of these results: Potency and affinity values are given separately. Calls of active or inactive are those of the source. Unless noted, calls come from the whole dose curve; as a rule, active = well fitted curve in the direction sought with a large enough effect; inconclusive = small, poorly fitted or top-dose-only effect, or another doubt; inactive = no such curve, though single readings can be large; an effect the other way counts as inactive or inconclusive.

By UniProt entry, the sequences of proteins in these tests, tags left out. Where a name states a change or a piece, a line headed by the entry shows the natural chain unless it says otherwise.
UniProt P19793: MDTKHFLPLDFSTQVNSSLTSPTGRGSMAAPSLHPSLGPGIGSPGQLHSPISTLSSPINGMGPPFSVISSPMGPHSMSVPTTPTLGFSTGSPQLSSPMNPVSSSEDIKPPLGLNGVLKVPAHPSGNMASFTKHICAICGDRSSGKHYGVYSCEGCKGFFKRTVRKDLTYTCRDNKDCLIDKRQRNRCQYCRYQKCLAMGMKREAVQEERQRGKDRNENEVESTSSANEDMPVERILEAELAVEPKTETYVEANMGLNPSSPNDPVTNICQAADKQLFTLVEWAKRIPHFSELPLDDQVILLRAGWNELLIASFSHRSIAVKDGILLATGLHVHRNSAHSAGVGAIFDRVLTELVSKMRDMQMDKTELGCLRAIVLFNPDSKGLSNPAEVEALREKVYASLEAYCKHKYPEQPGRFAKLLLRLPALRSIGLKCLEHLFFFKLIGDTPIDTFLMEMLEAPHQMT
UniProt Q07869: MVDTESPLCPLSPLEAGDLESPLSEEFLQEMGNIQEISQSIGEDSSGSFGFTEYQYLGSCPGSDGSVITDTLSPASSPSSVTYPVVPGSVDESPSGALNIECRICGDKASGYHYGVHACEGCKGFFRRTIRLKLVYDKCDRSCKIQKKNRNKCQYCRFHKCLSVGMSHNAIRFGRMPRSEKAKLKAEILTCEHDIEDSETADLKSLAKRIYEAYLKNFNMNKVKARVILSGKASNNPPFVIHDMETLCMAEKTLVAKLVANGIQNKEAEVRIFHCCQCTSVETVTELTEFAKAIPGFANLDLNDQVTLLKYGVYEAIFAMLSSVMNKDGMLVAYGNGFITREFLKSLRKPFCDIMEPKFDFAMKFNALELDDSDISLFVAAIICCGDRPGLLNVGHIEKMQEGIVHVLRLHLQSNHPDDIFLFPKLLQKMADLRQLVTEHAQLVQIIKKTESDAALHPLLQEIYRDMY
UniProt Q9R1A7: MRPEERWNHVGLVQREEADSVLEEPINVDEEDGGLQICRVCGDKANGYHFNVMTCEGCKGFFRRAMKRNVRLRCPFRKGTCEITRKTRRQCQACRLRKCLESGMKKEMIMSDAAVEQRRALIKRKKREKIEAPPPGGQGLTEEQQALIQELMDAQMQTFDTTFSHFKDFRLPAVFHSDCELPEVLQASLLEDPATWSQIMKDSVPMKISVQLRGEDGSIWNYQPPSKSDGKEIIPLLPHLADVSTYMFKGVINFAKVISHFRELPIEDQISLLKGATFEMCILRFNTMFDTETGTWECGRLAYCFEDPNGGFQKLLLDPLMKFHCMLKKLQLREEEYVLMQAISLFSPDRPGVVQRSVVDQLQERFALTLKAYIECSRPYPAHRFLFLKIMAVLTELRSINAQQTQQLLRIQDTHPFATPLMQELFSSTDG
UniProt P03372, whole entry, looked up: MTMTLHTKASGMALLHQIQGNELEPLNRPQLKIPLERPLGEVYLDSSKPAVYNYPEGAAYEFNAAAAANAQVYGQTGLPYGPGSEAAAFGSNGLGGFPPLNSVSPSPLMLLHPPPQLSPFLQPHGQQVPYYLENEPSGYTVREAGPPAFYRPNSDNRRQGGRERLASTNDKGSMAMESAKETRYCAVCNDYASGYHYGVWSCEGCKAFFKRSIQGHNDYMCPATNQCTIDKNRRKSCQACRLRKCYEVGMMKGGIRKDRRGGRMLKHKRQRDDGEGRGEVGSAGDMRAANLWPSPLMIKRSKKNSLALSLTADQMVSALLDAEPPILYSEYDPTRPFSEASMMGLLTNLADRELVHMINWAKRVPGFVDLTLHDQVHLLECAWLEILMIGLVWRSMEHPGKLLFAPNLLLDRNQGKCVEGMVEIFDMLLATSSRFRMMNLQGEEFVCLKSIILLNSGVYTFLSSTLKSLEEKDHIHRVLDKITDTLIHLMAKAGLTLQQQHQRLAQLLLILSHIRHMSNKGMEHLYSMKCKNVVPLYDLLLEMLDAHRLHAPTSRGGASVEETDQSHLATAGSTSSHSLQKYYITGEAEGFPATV
UniProt Q03181: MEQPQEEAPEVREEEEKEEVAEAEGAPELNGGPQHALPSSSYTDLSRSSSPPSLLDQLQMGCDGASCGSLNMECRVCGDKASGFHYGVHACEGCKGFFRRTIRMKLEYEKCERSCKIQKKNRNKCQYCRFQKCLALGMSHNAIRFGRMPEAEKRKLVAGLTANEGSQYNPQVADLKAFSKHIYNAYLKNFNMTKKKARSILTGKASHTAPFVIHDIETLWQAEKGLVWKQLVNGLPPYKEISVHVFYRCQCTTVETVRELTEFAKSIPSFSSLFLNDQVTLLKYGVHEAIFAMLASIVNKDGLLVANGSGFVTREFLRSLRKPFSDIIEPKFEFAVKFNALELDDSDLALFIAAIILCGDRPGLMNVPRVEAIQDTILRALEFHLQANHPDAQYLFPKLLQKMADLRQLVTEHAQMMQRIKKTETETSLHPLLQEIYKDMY
UniProt P10828: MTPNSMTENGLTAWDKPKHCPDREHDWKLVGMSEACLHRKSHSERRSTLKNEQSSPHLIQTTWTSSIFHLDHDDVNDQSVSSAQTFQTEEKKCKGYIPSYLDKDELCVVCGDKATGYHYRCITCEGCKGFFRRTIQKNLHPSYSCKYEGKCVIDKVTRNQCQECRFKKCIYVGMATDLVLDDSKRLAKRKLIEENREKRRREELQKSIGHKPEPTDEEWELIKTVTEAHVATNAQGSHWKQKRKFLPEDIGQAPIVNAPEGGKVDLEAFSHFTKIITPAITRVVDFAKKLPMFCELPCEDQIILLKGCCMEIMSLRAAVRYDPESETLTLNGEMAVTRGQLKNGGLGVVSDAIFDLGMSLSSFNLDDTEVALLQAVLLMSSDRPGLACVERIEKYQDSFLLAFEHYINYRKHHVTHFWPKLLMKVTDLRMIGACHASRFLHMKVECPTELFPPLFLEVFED
UniProt Q07343: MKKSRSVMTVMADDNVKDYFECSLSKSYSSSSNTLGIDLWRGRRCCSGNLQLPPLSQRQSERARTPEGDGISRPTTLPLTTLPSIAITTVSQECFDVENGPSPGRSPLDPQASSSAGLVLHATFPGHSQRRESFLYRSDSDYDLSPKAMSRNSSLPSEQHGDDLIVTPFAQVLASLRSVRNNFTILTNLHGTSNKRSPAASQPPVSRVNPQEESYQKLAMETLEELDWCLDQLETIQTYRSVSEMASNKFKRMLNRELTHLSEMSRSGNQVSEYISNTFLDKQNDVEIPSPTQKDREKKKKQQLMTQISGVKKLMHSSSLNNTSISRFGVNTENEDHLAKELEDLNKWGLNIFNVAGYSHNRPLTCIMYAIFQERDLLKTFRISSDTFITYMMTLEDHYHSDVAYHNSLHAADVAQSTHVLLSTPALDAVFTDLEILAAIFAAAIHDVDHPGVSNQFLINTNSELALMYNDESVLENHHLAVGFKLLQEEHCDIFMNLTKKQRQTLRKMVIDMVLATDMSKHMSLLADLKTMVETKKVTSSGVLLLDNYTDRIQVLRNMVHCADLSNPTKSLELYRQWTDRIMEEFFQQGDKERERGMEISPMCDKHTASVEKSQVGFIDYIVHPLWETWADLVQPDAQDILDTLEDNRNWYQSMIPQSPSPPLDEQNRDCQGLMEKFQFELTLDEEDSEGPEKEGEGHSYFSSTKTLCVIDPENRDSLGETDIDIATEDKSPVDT

Legend:
[1] = molecular target: Glucocorticoid receptor (Homo sapiens) (UniProt P04150); assay: qHTS assay for small molecule agonists of glucocorticoid receptor signaling (AID 588532; active = well fitted curve in the direction sought with a large enough effect in the signal ratio, with a control signal flat; the % refers to the signal ratio;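 note: 100% = dexamethasone at 0.1 µM and 0% = DMSO only wells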); conditions: HeLa MMTV-bla, beta-lactamase ratio, agonist, 18 h; stronger effect = higher value
[2] = molecular target: Retinoic acid receptor RXR-alpha (Homo sapiens) (UniProt P19793); assay: qHTS assay for small molecule antagonists of retinoid X receptor alpha signaling (AID 588546; active = well fitted inhibition curve with a large enough effect in the signal ratio, with a control signal flat, not every such curve was filed as active; the % refers to the signal ratio; note: potency is the fitted concentration of half-maximal effect); conditions: HEK293T RXRa-UAS-bla, beta-lactamase ratio, antagonist mode
Summary of the method: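 Beta-lactamase reporter inhibition, read as CCF4 fluorescence ratio (ex 405, em 460/530 nm) after 2 h at RT. HEK293T UAS-bla cells, 2500/well, were stimulated with 9-cis-RA at 500 or 100 nM final alongside test compound for 18 h at 37 C.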

[3] = qHTS assay for environmental chemicals that activate the Aryl hydrocarbon Receptor (AhR) signaling pathway (AID 651777); conditions: 1A2-DRE human hepatoma cells, luciferase, 24 h; stronger effect = higher value; note: % of control where 0% means no effect; nearly all actives have a fitted effect of over 15% in size
Summary of the method: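 Quantitative HTS in stably transfected human liver-derived cells whose luciferase gene sits downstream of the CYP1A2 promoter and dioxin response element. After 24 hr exposure at 37 C, One-Glo luminescence was measured.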

[4] = molecular target: Peroxisome proliferator-activated receptor alpha (Homo sapiens) (UniProt Q07869); assay: qHTS assay for small molecule agonists of the peroxisome proliferator-activated receptor alpha (PPARalpha) signaling pathway (AID 651778); conditions: PathHunter PPARalpha complementation, chemiluminescence, 6 h; stronger effect = higher value; note: % of control where 0% means no effect
[5] = qHTS assay for cell viability of HEK293 cells (AID 743288); conditions: ATP luminescence (CellTiter-Glo), 18 h; max response: stronger effect = lower value; note: nearly all actives have a fitted effect of over 50% in size; note: potency is the fitted concentration of half-maximal effect
Summary of the method: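 Environmental chemicals tested in qHTS format against parental HEK293 cells; 18 h treatment, 37 C; read-out ATP luminescence (CellTiter-Glo), 30 min RT development.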

[6] = qHTS assay for cell viability of the p53RE-bla HCT-116 cell line (AID 743292); note: nearly all actives have a fitted effect of over 55% in size; note: potency is the fitted concentration of half-maximal effect
Summary of the method: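 Viability of compound-treated p53RE-bla HCT-116 cells is taken from ATP-dependent luciferase luminescence. Treatment lasts 16 h at 37 C after a 5 h settling period; detection follows 30 min at room temperature.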

[7] = molecular target: Nuclear receptor subfamily 1 group I member 2 (Rattus norvegicus) (UniProt Q9R1A7); assay: qHTS assay for small molecule activators of the rat pregnane X receptor (rPXR) signaling pathway (AID 651751; call rule not given here; note: 0% is about no effect); conditions: rPXR reporter cells, luciferase (One-Glo), 24 h
[8] = qHTS assay for small molecule activators of the human pregnane X receptor (PXR) signaling pathway (AID 720659; call rule not given here; note: 0% is about no effect); conditions: DPX-2 HepG2 CYP3A4-luciferase, 24 h; at 92.3 µM (top of the series)
[9] = molecular target: Estrogen receptor (Homo sapiens) (UniProt P03372); assay: qHTS assay for small molecule antagonists of estrogen receptor alpha signaling (AID 588513; active = well fitted curve in the direction sought with a large enough effect in the signal ratio, with a control signal flat, not every such curve was filed as active; the % refers to the signal ratio; note: % is set by controls: 0 for no effect and ±100 for the full control effect); conditions: ER-alpha-UAS-bla HEK293, beta-lactamase ratio, antagonist mode; at 76.9 µM (top of the series)
[10] = molecular target: Bile acid receptor (Homo sapiens) (UniProt Q96RI1); assay: qHTS assay for small molecule antagonists of farnesoid X receptor signaling (AID 588526; calls by dose curve; note: % is set by controls: 0 for no effect and ±100 for the full control effect); conditions: HEK293T FXR-UAS-bla, beta-lactamase ratio, antagonist mode; at 76.7 µM (top of the series)
[11] = molecular target: Bile acid receptor (Homo sapiens) (UniProt Q96RI1); assay: qHTS assay for small molecule agonists of farnesoid X receptor signaling (AID 588527; calls by dose curve;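 note: 0% = vehicle basal and 100% = reference agonist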); conditions: HEK293T FXR-UAS-bla, beta-lactamase ratio, 16 h; stronger effect = higher value
[12] = molecular target: Glucocorticoid receptor (Homo sapiens) (UniProt P04150); assay: qHTS assay for small molecule antagonists of glucocorticoid receptor signaling (AID 588533; active = well fitted inhibition curve with a large enough effect in the signal ratio, with a control signal flat, not every such curve was filed as active; the % refers to the signal ratio; note: % is set by controls: 0 for no effect and ±100 for the full control effect); conditions: HeLa MMTV-bla, GRE beta-lactamase ratio, antagonist mode, 18 h; at 76.8 µM (top of the series)
[13] = molecular target: Peroxisome proliferator-activated receptor delta (Homo sapiens) (UniProt Q03181); assay: qHTS assay for small molecule agonists of peroxisome proliferator-activated receptor delta signaling (AID 588534; calls by dose curve;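 note: 0% = DMSO basal wells and 100% = positive control agonist at 10 µM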); conditions: HEK293T PPARdelta-UAS-bla, beta-lactamase ratio, 18 h; at 76.7 µM (top of the series)
[14] = molecular target: Peroxisome proliferator-activated receptor delta (Homo sapiens) (UniProt Q03181); assay: qHTS assay for small molecule antagonists of peroxisome proliferator-activated receptor delta signaling (AID 588535; active = well fitted inhibition curve with a large enough effect in the signal ratio, with a control signal flat, not every such curve was filed as active; the % refers to the signal ratio); conditions: HEK293T PPARd-UAS-bla, beta-lactamase FRET ratio, 18 h; at 76.7 µM (top of the series)
[15] = molecular target: Peroxisome proliferator-activated receptor gamma (Homo sapiens) (UniProt P37231); assay: qHTS assay for small molecule agonists of peroxisome proliferator-activated receptor gamma signaling (AID 588536; active = well fitted curve in the direction sought with a large enough effect in the signal ratio, with a control signal flat, not every such curve was filed as active; the % refers to the signal ratio;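 note: 0% = DMSO basal wells and 100% = rosiglitazone at 2 µM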); conditions: HEK293 PPARg-UAS-bla, beta-lactamase ratio, 16 h, percent of rosiglitazone response, DMSO as zero; at 76.7 µM (top of the series)
[16] = molecular target: Peroxisome proliferator-activated receptor gamma (Homo sapiens) (UniProt P37231); assay: qHTS assay for small molecule antagonists of peroxisome proliferator-activated receptor gamma signaling (AID 588537; active = well fitted inhibition curve with a large enough effect in the signal ratio, with a control signal flat, not every such curve was filed as active; the % refers to the signal ratio;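 note: reporter cells co-stimulated with 50 nM rosiglitazone agonist during compound treatment; % of control where 0% means no effect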); conditions: HEK293 PPARg-UAS-bla, beta-lactamase ratio, antagonist mode; at 76.8 µM (top of the series)
Summary of the method: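 PPARγ-UAS-bla HEK293 cells (3000/well) in 1% charcoal/dextran-stripped FBS are treated with compound, then stimulated with 50 nM rosiglitazone for 16 h at 37 °C. Read-out is CCF4 β-lactamase fluorescence after 2 h at RT. IC50 comes from Hill fits normalised to rosiglitazone and DMSO.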

[17] = molecular target: Vitamin D3 receptor (Homo sapiens) (UniProt P11473); assay: qHTS assay for small molecule antagonists of vitamin D receptor signaling (AID 588541; calls by dose curve;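 note: receptor activated by calcitriol during compound treatment; % is set by controls: 0 for no effect and ±100 for the full control effect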); conditions: HEK293T VDR-UAS-bla, beta-lactamase ratio, antagonist mode; at 76.7 µM (top of the series)
Summary of the method: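 VDR-UAS-bla HEK293T cells in 2% charcoal-stripped FBS were stimulated with 1-alpha,25-dihydroxyvitamin D3 (3 nM final) plus compound for 16 h at 37 C. The beta-lactamase CCF4 readout was normalized to 50 nM agonist and DMSO, and Hill fits gave IC50.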

[18] = molecular target: Vitamin D3 receptor (Homo sapiens) (UniProt P11473); assay: qHTS assay for small molecule agonists of vitamin D receptor signaling (AID 588543; calls by dose curve;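 note: 0% = DMSO basal and 100% = reference agonist control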); conditions: HEK293T VDR-UAS-bla, beta-lactamase ratio, 16 h; at 76.8 µM (top of the series)
Summary of the method: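 β-lactamase reporter, VDR-UAS-bla HEK293T, agonist mode. Cells plated 5 h at 37 °C, compound titration 16 h at 37 °C, CCF4 dye 2 h RT, ratio 460/530 nm. Hill fit → EC50, efficacy vs 50 nM 1α,25-(OH)2D3.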

[19] = molecular target: Thyroid hormone receptor beta (Homo sapiens) (UniProt P10828); assay: qHTS assay for small molecule antagonists of thyroid hormone receptor beta signaling (AID 588547; active = well fitted inhibition curve with a large enough effect in the signal ratio, with a control signal flat, not every such curve was filed as active; the % refers to the signal ratio); conditions: TR-UAS-bla HEK293, beta-lactamase ratio, antagonist mode, 18 h; stronger effect = lower value
Summary of the method: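 TR-UAS-bla GripTite HEK293 cells in 2% charcoal/dextran FBS medium; compounds 0.59 nM to 92 uM with T3 at 0.4nM final, 18 h at 37 C. Beta-lactamase read by CCF4 fluorescence (460/530 nm); Hill fits gave IC50 and efficacy.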

[20] = qHTS assay for small molecule activators of the p53 signaling pathway (AID 651743; active = well fitted activation curve with a large enough effect in the signal ratio, not every such curve was filed as active; the % refers to the signal ratio; note: % of control where 0% means no effect); conditions: HCT-116 p53RE-bla, beta-lactamase FRET ratio, 16 h; activation: stronger effect = higher value
[21] = qHTS assay for small molecule activators of the nuclear factor-kappa B (NF-kB) signaling pathway (AID 651749; active = well fitted activation curve with a large enough effect in the signal ratio; the % refers to the signal ratio; note: % of control where 0% means no effect); conditions: NF-kB-bla ME-180 cells, beta-lactamase FRET ratio, 16 h; stronger effect = higher value
Summary of the method: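 NF-kB-bla ME-180 cells carrying a beta-lactamase reporter under an NF-kB response element, 2,000 cells/well, exposed to compound for 16 hr at 37C; FRET-based beta-lactamase fluorescence read-out of pathway activation.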

[22] = qHTS assay for small molecule agonists of the antioxidant response element (ARE) signaling pathway measured by Nrf2-dependant transcriptional activity (AID 720636; active = well fitted curve in the direction sought with a large enough effect in the repeat runs; an effect the other way counts as inactive or inconclusive;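 note: HepG2 cells with an ARE-driven luciferase reporter; % of control where 0% means no effect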); conditions: ARE-luc HepG2, Nrf2 luciferase reporter, 16 h; at 92.4 µM (top of the series)
[23] = qHTS assay for small molecule agonists of the antioxidant response element (ARE) signaling pathway measured by Nrf2-dependant transcriptional activity - cell viability counter screen (AID 720653; active = well fitted curve in the direction sought with a large enough effect in the repeat runs; an effect the other way counts as inactive or inconclusive; note: % is set by controls: 0 for no effect and ±100 for the full control effect); conditions: ARE-bla HepG2 viability, CellTiter-Glo ATP luminescence, 16 h; stronger effect = lower value
Summary of the method: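 ARE-bla HepG2 cells treated with compounds for 16 h at 37C; this counter screen measures viability as intracellular ATP by CellTiter-Glo luminescence after 30 min at room temperature.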

[24] = Cell Proliferation Assay against the HBL1 Cell Line (AID 651646); conditions: HBL1 DLBCL cells; at 46.1 µM (top of the series) unless noted;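 note: cells exposed to compound for 48 h before reading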
Summary of the method: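 HBL1 ABC DLBCL cells, 500/well in RPMI with 5% FBS, treated for 48 h at 37C. Viability read by CellTiter-Glo luminescence, normalized to DMSO as 100% and 9.2 uM bortezomib as 0%.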

[25] = NFAT Signaling Pathway (AID 444; active = well fitted curve in either direction with a large enough effect, not every such curve was filed as active); conditions: Jurkat NFAT-bla M1, carbachol, beta-lactamase ratio, 5 h; at 7.69 µM (top of the series) unless noted
[26] = Stat Signaling Pathway (AID 446; active = well fitted curve in either direction with a large enough effect, not every such curve was filed as active); conditions: ME-180 SIE beta-lactamase reporter, IL-6 stimulated, 5 h; at 7.69 µM (top of the series) unless noted
Summary of the method: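 ME-180 cells carrying a SIE-driven beta-lactamase reporter are stimulated with 40 pM IL-6 for 5 h at 37C in the presence of compound. The 460/530 nm FRET substrate ratio is read after 2.5 h at RT. Data are normalised to 300 pM IL-6 and to 125 nM JAK inhibitor controls.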

[27] = molecular target: Mitogen-activated protein kinase 10 (Mus musculus) (UniProt Q61831); assay: JNK3 AlphaScreen Assay (AID 530; active = well fitted curve in either direction with a large enough effect, not every such curve was filed as active); conditions: JNK3 lysate, c-Jun phosphorylation; at 11.4 µM (top of the series) unless noted
Summary of the method: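 Pre-activated (IL-1β/TNFα) JNK3 in HepG2 lysates phosphorylates biotin-GST-cJun(1-79), 10 uM ATP; anti-phospho-cJun(Ser73) AlphaScreen read at room temperature, pH 7.6 Tris buffer. Compounds pre-incubated 15 min as titrations.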

[28] = molecular target: 3',5'-cyclic-AMP phosphodiesterase 4B (Homo sapiens) (UniProt Q07343); assay: qHTS Assay for Inhibitors of PDE-IV (AID 607; active = well fitted activation curve with a large enough effect in the main read-out, with a control signal flat, not every such curve was filed as active; note: % of control where 0% means no effect); conditions: HEK293 ACTOne CNG channel cells, membrane potential fluorescence; at 22.9 µM (top of the series)
Summary of the method: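 HEK293 ACTOne cells with CNG channel (1000/well), endogenous PDE4; membrane potential dye, compounds up to 22.9 uM final. Fluorescence Ex 535/Em 590; RO 20-1724 (100 uM final) as reference.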

In the case of O=C1C2CC=CCC2C(=O)N1SC(Cl)(Cl)C(Cl)Cl (stereo not given), the activation [1] is reported as inactive: -1.35%, the Potency [2] is reported as active: 6.31 µM and the activation [3] is reported as inactive: 7.49%. For the same compound, the max response [4] was inactive: -5.51%, the Potency [5] was active: 31.6 µM and the Potency [6] was active: 31.6 µM. For the same compound, the max response [7] was inactive: -15.1% and the activation [8] was inactive: 2.13%.
In the case of O=[N+]([O-])c1ccc([N+](=O)[O-])cc1, the activity, negative = inhibition [9] is reported as inactive: 6.48%, the activity change, negative = inhibition [10] is reported as inactive: -2.89% and the activation [11] is reported as inactive: -0.378%. For the same compound, the activation [1] was inactive: -11.1%, the activity change, negative = inhibition [12] was inactive: -10.1% and the activation [13] was inactive: 1.82%. For the same compound, the activity change, negative = inhibition [14] was inactive: -14.5%, the activation [15] was inactive: -9.4% and the activity, negative = inhibition [16] was inactive: -15.4%. For the same compound, the activity change, negative = inhibition [17] was inactive: -2.11%, the activation [18] was inactive: -6.96% and the max response [2] was inactive: -8.68%. The inhibition [19] was inactive: -16.9%, the activation [20] was inactive: 1.07% and the activation [21] was inactive: -0.599%. For the same compound, the activation [3] was inactive: 8.35%, the max response [4] was inactive: -0.739% and the activation [22] was inactive: 0.989%. The max response [23] was inactive: -8.14%, the max response [5] was inactive: -6.19% and the Potency [6] was “inactive”. The max response [7] was inactive: 4.36% and the activation [8] was inactive: -6.74%.
Compound CCOC(=O)N[C@@H]1CC[C@@H]2[C@@H](C1)C[C@H]1C(=O)O[C@H](C)[C@H]1[C@@H]2C=Cc1ccc(-c2cccc(F)c2)cn1 has a viability, percent of control [24] of 37.9%.
With O=[As](O)(O)c1ccc([As](=O)(O)O)cc1 the activity change, negative = inhibition [25] was inactive: 11.9%, the activity, negative = inhibition [26] was inactive: 0.488% and the activity change, negative = inhibition [27] was inactive: 2.36%. The activation (PDE inhibition) [28] was inactive: -7.38%.
With O=C(CC(=O)c1ccccc1)O[C@H]1CN2CCC1CC2 the activity, negative = inhibition [26] was inactive: 0.783%, the activity change, negative = inhibition [27] was inactive: 2.4% and the activation (PDE inhibition) [28] was inactive: 10.9%.
In the case of Cc1cccc(OCC(=O)OC2CN3CCC2CC3)c1 (stereo not given), the activity, negative = inhibition [26] is reported as inactive: -1.78% [at 17.2 µM].
